Data set [1] in a line: Molar enthalpy of transition or fusion. To be noted: Crystal; DSC.
For data set [2] the following is noted: Crystal; DTA.

± gives the expanded uncertainty stated by the source.

The values that follow come from the NIST ThermoML archive (doi:10.1016/j.fluid.2015.10.024).

In the case of `CN1C(=O)CN=C(c2ccccc2)c2cc(Cl)ccc21`, the “Molar enthalpy of transition or fusion” value in data set [1] amounted to 6.25 ± 0.143 kcal/mol. For the same compound, the Normal melting temperature in data set [2] worked out at 130.97 ± 0.39 °C.
